Here are results for 1 molecule from PMC6465774 (Frontiers in Pharmacology, 2019).

The chains behind the UniProt entries cited, without tags or fusion partners.
UniProt P33535, whole entry: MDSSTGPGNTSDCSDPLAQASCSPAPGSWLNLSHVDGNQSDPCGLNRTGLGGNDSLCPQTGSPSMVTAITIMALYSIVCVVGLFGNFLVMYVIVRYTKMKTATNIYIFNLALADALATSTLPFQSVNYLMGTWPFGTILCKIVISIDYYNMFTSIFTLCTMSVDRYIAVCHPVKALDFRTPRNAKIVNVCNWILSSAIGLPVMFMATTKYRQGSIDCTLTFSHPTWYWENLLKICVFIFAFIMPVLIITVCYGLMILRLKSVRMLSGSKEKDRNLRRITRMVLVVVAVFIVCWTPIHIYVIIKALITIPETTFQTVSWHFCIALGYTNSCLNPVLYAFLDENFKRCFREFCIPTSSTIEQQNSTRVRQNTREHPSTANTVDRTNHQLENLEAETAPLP

In the assay the target is T1, MOR (Rattus norvegicus, UniProt P33535).
T1 construct: incubating 50–100 μg of membrane protein of lumbar dorsal horn with 0.1- 4 nM; from tissue; host or cells: rat lumbar (L3-5) dorsal spinal cord / dorsal horn membranes, diabetic and control rats
In words: [3H]DAMGO saturation binding in dorsal spinal cord membranes. The note with it: dorsal horn membranes of control rats; read-out: dissociation constant (Kd), control rats.

Consider `C[C@@H](NC(=O)[C@@H](N)Cc1ccc(O)cc1)C(=O)NCC(=O)N(C)[C@@H](Cc1ccccc1)C(=O)NCCO` [DAMGO, Tyr-D-Ala-Gly-(NMe)Phe-Gly-ol], for which the Kd was 0.29 ± 0.17 nM.

A word on the Kd: it is the constant that tells how readily two partners part at equilibrium.
